Literature values, collected in article PMC2009657, “Mammalian cell transformation in vitro. Six tests for carcinogenicity” (British Journal of Cancer, 1978).

Settings: in vivo; cited from earlier work

Structure (SMILES): CO[C@@]12[C@H](COC(N)=O)C3=C(C(=O)C(C)=C(N)C3=O)N1C[C@@H]1N[C@@H]12 [Mitomycin C]
- Carcinogenicity, Lit.: +

Structure (SMILES): COc1cc2c(c(OC)c1OC)-c1ccc(OC)c(=O)cc1[C@@H](NC(C)=O)CC2 [Colchicine]
- Carcinogenicity, Lit.: -
